According to patent US8557859B2, “Immunomodulatory compositions” (Summit (Wales) Limited, priority 2003, dated 2013):

tested on: β-D-galactosidase; assay: Glycosidase inhibition, β-D-galactosidase; format: biochemical, Bovine liver; settings: 1 mg/ml; second galactosidase line
Description: All enzymes were purchased from Sigma, as were the appropriate p-nitrophenyl substrates. Assays were carried out in microtitre plates. Enzymes were assayed in 0.1 M citric acid/0.2M di-sodium hydrogen phosphate (McIlvaine) buffers at the optimum pH for the enzyme. All assays were carried out at 20° C. For screening assays the incubation assay consisted of 10 μl of enzyme solution, 10 μl of inhibitor solution (made up in water) and 50 μl of the appropriate 5 mM p-nitrophenyl substrate (3.57 mM final conc.) made up in McIlvaine buffer at the optimum pH for the enzyme.
The reactions were stopped with 0.4M glycine (pH 10.4) during the exponential phase of the reaction, which was determined at the beginning of the assay using blanks with water, which were incubated for a range of time periods to measure the reaction rate using 5 mM substrate solution. Endpoint absorbances were read at 405 nm with a Biorad microtitre plate reader (Benchmark). Water was substituted for the inhibitors in the blanks.

Compound | % inhibition galactosidase
OC[C@H]1[C@@H](O)[C@H](O)[C@H]2[C@@H](O)[C@@H](O)CN21 [3,7-diepi-casuarine (10), (1R,2R,3S,6S,7R,7aR)-3-(Hydroxymethyl)-1,2,6,7-tetrahydroxypyrrolizidine] | 24%
OC[C@H]1[C@@H](O)[C@H](O)[C@@H]2[C@@H](O)[C@@H](O)CN21 [Compound 22, 3,7,7a-triepi-casuarine] | 52%
OC[C@@H]1[C@@H](O)[C@H](O)[C@H]2[C@@H](O)[C@@H](O)CN21 [7-epi-casuarine (11), 7-epi-casuarine] | 35%
